Molecules are shown by their SMILES. The list shows a part of the results, in another mix than the full data. Some of these compounds have results that are not shown, active ones among them. Activity calls are given as the source filed them.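 How the source made its calls: active means activation of at least 50% relative to the plate's high and low controls in the primary single-dose screen; inactive means activation below 50%.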

This test is described as follows: compounds producing H2O2 with reducing agent – biochemical, NIH compound library profiling, artefact control for MLSCN library redox annotation, primary screen (AID 878).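 Further: compound incubated with DTT at 0.8 mM final as the reducing agent.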 The settings on record: DTT-dependent redox cycling H2O2, phenol red/HRP absorbance; at 10 µM; hits give high values; 100% = 100 µM peroxide control, 0% = buffer.
On to `CC(C)N1C(=O)CC2(CCN(CCOC(=O)C(O)(c3ccccc3)c3ccccc3)CC2)C1=O`, for which the activation was inactive: 1.96%.

Take `O=C(NCC1(N2CCCCC2)CCCCC1)c1cc([N+](=O)[O-])ccc1Cl`: the activation is inactive: -0.51%.

Regarding `CCN1CCCC(OC(=O)C2(O)c3ccccc3C=Cc3ccccc32)C1` (centres undefined), the activation is inactive: -0.17%.

Consider `C=CCN1CCN(CCOC(=O)C(O)(c2ccccc2)c2ccccc2)CC1`, for which the activation is inactive: 0.17%.

`CN(C)C1CCCC1OC(=O)C(O)(c1ccccc1)c1ccccc1` (centres undefined): the activation is inactive: 0.04%.

In the case of `Cc1ccccc1C(=O)NCC1(N2CCCCC2)CCCCC1`, the activation was inactive: -1.98%.

On to `COc1cccc(C(=O)NCC2(N3CCCCC3)CCCCC2)c1`, for which the activation is inactive: -1.77%.

Take `CN(C)c1cccc(C(=O)NCC2(N(C)C)CCCCC2)c1`: the activation is inactive: -0.13%.

For `O=C(OC1CN2CCC1CC2)C(CO)(c1ccccc1)c1ccccc1` (centres undefined), the activation was inactive: -0.59%.
